Molecules are shown by their SMILES.

Protein sequences, listed by entry. Tags and fused reporters are not part of them. Residues count along the entry.
UniProt O95822, 40-493 limits assumed: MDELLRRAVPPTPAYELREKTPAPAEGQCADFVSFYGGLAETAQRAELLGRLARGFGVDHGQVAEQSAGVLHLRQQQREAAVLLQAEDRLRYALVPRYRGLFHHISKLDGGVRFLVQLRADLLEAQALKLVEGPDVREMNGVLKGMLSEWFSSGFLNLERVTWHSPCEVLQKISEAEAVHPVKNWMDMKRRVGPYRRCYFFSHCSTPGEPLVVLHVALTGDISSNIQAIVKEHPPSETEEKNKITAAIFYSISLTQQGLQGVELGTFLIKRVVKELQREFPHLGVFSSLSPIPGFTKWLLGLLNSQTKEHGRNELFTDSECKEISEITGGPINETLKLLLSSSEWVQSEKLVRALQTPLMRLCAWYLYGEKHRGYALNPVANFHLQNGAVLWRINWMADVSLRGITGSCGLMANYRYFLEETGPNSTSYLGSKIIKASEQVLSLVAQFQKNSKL

The values below come from patent publication US8080665B2 (Chugai Seiyaku Kabushiki Kaisha, priority 2003, dated 2011).

The assay concerns the target hMCD (Homo sapiens, UniProt O95822). Put plainly: In vitro MCD inhibitory assay. To be noted: read-out: Ki, in vitro MCD inhibitory activities.

With `CC(C)CCCN1CCC(NC(=O)N(c2ccc3nc(S)sc3c2)C(C)C)CC1`, the Ki turned out to be 56.7 nM.
